Data taken from US20230233305A1, “METHOD OF AMELIORATING OR TREATING INFLAMMATORY IN AN ORAL CAVITY” (priority 2022, published 2023).

Conditions: 0th to 6th weeks; cats; 200 ng/kg oral

Substance: vitamin D [fat-soluble vitamin D]
- amount of vitamin D (25-(OH)-D3) in the serum: the highest
